# US20110177162A1
# Key:
# [1] = target: rat luteinizing hormone receptor (rat) (UniProt P16235); assay: cell-based or functional assay
# [2] = target: bovine luteinizing hormone receptor (bovine) (UniProt Q28005); assay: cell-based or functional assay
substance,measurement,setting,value
bovine luteinizing hormone (from UniProt P01217 25-120; P04651 21-141) (ligand),"PCRE controlled luciferase expression, 6 h post-induction with 500 ng/ml bLH, HEK293T transiently expressing rLHR",[1],9.9 fold
same,"PCRE controlled luciferase expression, stable rLHR clone 6 (CK04), 500 ng/ml bLH",[1],17 fold
same,"PCRE dependent SEAP expression of encapsulated CK04 cells, 60 hours post-induction, LH-surge dose of bLH compared to 100 ng/ml",[1],2.3 fold
same,"PCRE dependent SEAP production, rLHR-expressing cells relative to bLHR-expressing cells, 500 ng/mL bLH",[1],3 fold
same,"cellulase activity in supernatant, CK04 cells transfected with pCK71 (PCRE-cellulase), 48 h post-induction",[1],8.4 fold
same,"increase in intracellular cAMP-level, 1 hour post-induction with 500 ng/ml bLH, HEK293T transiently expressing rLHR",[1],29 fold
same,"rate of disrupted CS/pDADMAC capsules holding CK04 cells with pCK71, 24 hours post-induction with 500 ng/ml bLH",[1],98%
same,"rate of spontaneously collapsed capsules holding CK04 cells with pCK71, without bLH (baseline)",[1],6%
same,"increase in intracellular cAMP-level, 1 hour post-induction with 500 ng/ml bLH, HEK293T transiently expressing bLHR",[2],12 fold
